The source of these data is patent publication US11273203B2, “Methods of mitigating toxic effects of vesicants and caustic gas” (dated 2022).

Several values for one entry are separate records, joined by “and”; a condition that tells them apart may be missing. Equal values may be shown once.

In assay [1] the test system is male Wistar rats exposed to nitrogen mustard (NM). As to the kind of experiment: NM-induced mortality and body weight. The following applies: NM 1.7 mg/kg; TPOm 0.3 mg/kg s.c. 6 h following NM exposure; not powered to resolve significance; FIG. 6.
The test system is the same in assay [2]. The assay can be described thus: MRI (T2-weighted) measurement of NM-induced pulmonary edema. The conditions noted are these: day 42 and day 70; TPOm at 6 h and Day 7, or 6 h, Day 7 and 14; compared to NM alone (p=0.0104 and p=0.0770).
For assay [3] the test system is unchanged. As to the kind of experiment: NM-induced pulmonary fibrosis, PTA-contrasted microCT fibrosis score. The following applies: 70-day post exposure; TPOm 0.3 mg/kg, 2 or 3 doses; vehicle control 4.33; FIG. 5A.

For the substance “methoxypolyethyleneglycol20000-propionyl-L-Isoleucyl-L-Glutamyl-Glycyl-L-Prolyl-L-Threonyl-L-Leucyl-L-Arginyl-L-Glutaminyl-L-2-Naphthylalanyl-L-Leucyl-L-Alanyl-L-Alanyl-L-Arginyl-Sarcosyl-Ne-(methoxypolyethyleneglycol20000-propionyl-L-Isoleucyl-L-Glutamyl-Glycyl-L-Prolyl-L-Threonyl-L-Leucyl-L-Arginyl-L-Glutaminyl-L-2-Naphthylalanyl-L-Leucyl-L-Alanyl-L-Alanyl-L-Arginyl-Sarcosyl-)-Lysinamide”, the “NM-induced mortality (survival)” value in assay [1] was “prolong life and resulted in fewer deaths”. Also, the “mean pulmonary edema volumes” value in assay [2] is reported as “lower”. The fibrosis score in assay [3] is 2.11 and 1.89.
